For this experiment, the system named is mouse chronic constrictive injury of the sciatic nerve (CCI) model of neuropathic pain. The note with it: 40 mg/kg i.p.

Where only a bound is given, the exact number is not on record here.

`N#Cc1ccc2c(C(CC(F)(F)F)c3cccs3)c(-c3ccccc3)[nH]c2c1` (racemic) [(±)-1, 2-Phenyl-3-(3,3,3-trifluoro-1-(thiophen-2-yl)propyl)-1H-indole-6-carbonitrile]: the “time of significant anti-allodynic effect post-administration” value was determined as 0.5 h and the “time to maximal anti-allodynic effectiveness” value is reported as not above 1 h.

These data come from article PMC7871173 (Journal of medicinal chemistry, 2019).
